Experimental data published in US12064507B2, “Composition and method for oral treatment of leukemia” (Provectus Pharmatech, Inc., priority 2019, dated 2024).

Tested on: leukemia
Conditions: parental application Ser. No. 16/688,319

COc1cccc2c1C(=O)c1c(O)c3c(c(O)c1C2=O)C[C@@](O)(C(=O)CO)C[C@@H]3O[C@H]1C[C@H](N)[C@H](O)[C@H](C)O1 [doxorubicin]
synergy in treatment with a sub-lethal dose of PV-10: appeared to synergize
